# Source: PubChem BioAssay (Tox21)
# Protein sequences, listed by entry. Tags and fused reporters are not part of them.
# UniProt P03372, whole entry: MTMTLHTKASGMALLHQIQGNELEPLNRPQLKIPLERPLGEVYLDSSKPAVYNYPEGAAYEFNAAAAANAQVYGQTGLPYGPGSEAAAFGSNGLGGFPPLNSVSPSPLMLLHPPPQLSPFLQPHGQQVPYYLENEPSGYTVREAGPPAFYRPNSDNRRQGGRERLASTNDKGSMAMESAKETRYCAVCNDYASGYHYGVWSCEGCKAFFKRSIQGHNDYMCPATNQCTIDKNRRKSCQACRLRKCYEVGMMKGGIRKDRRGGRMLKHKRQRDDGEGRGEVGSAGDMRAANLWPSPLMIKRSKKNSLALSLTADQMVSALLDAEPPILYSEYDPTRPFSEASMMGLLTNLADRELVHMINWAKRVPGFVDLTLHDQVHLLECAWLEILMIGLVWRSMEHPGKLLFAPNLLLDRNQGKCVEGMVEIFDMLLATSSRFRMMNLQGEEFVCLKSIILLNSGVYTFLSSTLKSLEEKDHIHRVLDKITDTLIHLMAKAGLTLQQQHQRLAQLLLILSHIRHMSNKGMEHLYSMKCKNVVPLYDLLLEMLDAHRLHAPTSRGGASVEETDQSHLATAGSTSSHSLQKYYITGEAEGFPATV
# UniProt P11511, whole entry: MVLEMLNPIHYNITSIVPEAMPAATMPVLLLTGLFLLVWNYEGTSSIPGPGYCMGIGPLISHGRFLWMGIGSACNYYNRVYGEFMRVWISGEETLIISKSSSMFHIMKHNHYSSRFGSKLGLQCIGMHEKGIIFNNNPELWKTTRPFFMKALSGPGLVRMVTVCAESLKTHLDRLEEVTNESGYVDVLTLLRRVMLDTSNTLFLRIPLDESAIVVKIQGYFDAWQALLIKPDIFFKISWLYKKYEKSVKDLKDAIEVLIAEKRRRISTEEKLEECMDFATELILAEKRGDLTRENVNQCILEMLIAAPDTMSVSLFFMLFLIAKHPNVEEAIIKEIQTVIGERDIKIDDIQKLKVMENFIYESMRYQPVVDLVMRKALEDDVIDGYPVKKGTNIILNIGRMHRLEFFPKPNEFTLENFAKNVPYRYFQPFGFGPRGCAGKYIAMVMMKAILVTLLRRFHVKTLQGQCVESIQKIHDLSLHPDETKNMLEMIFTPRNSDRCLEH
# UniProt P35869, whole entry: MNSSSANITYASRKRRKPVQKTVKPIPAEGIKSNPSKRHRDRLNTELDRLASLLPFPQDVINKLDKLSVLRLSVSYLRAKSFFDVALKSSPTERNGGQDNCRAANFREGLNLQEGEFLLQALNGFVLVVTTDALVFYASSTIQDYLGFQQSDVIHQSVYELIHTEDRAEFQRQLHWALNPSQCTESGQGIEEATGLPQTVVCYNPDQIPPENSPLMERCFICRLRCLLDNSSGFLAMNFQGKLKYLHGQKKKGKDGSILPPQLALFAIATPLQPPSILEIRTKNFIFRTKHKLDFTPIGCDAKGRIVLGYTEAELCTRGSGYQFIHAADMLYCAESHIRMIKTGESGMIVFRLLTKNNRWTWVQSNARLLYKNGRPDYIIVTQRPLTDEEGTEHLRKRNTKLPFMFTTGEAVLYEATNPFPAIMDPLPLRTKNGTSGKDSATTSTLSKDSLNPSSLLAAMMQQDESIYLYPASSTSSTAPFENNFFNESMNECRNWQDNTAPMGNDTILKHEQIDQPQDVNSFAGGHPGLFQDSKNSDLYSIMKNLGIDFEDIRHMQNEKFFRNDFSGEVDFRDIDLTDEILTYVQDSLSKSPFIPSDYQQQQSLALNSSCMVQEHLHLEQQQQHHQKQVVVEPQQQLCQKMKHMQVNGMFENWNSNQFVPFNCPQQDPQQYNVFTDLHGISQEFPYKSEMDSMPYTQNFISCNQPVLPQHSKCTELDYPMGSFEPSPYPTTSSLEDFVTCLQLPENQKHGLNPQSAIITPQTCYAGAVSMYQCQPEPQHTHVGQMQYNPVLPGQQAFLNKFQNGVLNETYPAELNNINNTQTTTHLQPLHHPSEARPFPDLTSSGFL
# UniProt P37231, whole entry: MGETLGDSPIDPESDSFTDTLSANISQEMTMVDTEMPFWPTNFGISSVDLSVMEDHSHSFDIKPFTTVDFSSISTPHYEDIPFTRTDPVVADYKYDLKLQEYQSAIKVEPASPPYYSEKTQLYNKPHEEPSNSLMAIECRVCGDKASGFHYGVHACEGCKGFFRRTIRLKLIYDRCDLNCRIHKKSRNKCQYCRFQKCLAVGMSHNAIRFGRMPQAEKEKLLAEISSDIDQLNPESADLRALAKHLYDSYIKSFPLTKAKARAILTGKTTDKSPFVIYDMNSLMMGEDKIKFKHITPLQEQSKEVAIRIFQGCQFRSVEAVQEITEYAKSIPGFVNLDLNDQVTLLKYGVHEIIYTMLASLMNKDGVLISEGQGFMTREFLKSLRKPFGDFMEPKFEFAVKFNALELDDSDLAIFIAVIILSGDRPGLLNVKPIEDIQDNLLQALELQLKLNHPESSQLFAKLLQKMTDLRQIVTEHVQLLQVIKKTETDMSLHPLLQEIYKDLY
# “And” between values parts separate entries of the source, which are not always exact repeats. Equal entries are not always repeated. Only a part is listed here, and it is no random draw. Inconclusive results are not listed. The source made the active and inactive calls. Unless noted, the call rests on the fitted dose curve; in most records, active means well fitted curve in the direction sought with a large enough effect in the repeat runs; inconclusive means weak or mixed curves; inactive means no such curve, though single readings can be large; an effect the other way counts as inactive or inconclusive.
# Assays:
# [1] = target: Estrogen receptor (Homo sapiens) (UniProt P03372); assay: qHTS assay to identify small molecule agonists of the estrogen receptor alpha (ER-alpha) signaling pathway using the BG1 cell line (AID 743079); further: nearly all actives have a fitted effect of over 20% in size
# [2] = qHTS assay to identify small molecule antagonists of the estrogen receptor alpha (ER-alpha) signaling pathway using the BG1 cell line (AID 743080; calls by dose curve; further: nearly all actives have a fitted effect of over 25% in size); details: BG1Luc4E2 ERE-luciferase antagonist mode, luminescence
# How it was run: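 Antagonist mode: compounds in DMSO were pinned onto BG1-Luc-4E2 cells alongside 17beta-estradiol agonist, incubated 21.5 h, and ERE-driven luciferase measured with ONE-Glo. Cytotoxicity was multiplexed using CellTiter-Fluor fluorescence.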
# [3] = qHTS assay to identify small molecule antagonists of the estrogen receptor alpha (ER-alpha) signaling pathway using the BG1 cell line - cell viability counter screen (AID 743081);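 further: compound given together with 17beta-estradiol as the ER stimulus; nearly all actives have a fitted effect of over 45% in size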; further: potency means the concentration at half of the fitted maximal effect
# Aromatase (Homo sapiens) = Aromatase (Homo sapiens) (UniProt P11511); assay: qHTS assay to identify aromatase inhibitors (AID 743083); details: MCF-7 aro ERE, testosterone-driven ERE luciferase, 24 h; further: nearly all actives have a fitted effect of over 55% in size
# [4] = qHTS assay to identify aromatase inhibitors - cell viability counter screen (AID 743084); details: MCF-7 aro ERE viability, CellTiter-Fluor, 24 h;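 further: cells stimulated with testosterone during compound exposure; nearly all actives have a fitted effect of over 55% in size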
# [5] = target: Aryl hydrocarbon receptor (Homo sapiens) (UniProt P35869); assay: qHTS assay to identify small molecule that activate the aryl hydrocarbon receptor (AhR) signaling pathway (AID 743085);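 further: HG2L7.5c1 human HepG2 liver cells with stably integrated DRE-driven firefly reporter; nearly all actives have a fitted effect of over 15% in size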
# [6] = qHTS assay to identify small molecule that activate the aryl hydrocarbon receptor (AhR) signaling pathway - cell viability counter screen (AID 743086); further: nearly all actives have a fitted effect of over 45% in size; further: potency means the concentration at half of the fitted maximal effect
# How it was run: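 HepG2-AhR-luc (HG2L7.5c1) cells, 4000/well, treated 24 h at 37 C with compound; viability measured as CellTiter-Fluor fluorescence after 30 min in the same wells as the luciferase read.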
# [7] = target: Peroxisome proliferator-activated receptor gamma (Homo sapiens) (UniProt P37231); assay: qHTS assay to identify small molecule agonists of the peroxisome proliferator-activated receptor gamma (PPARg) signaling pathway (AID 743094; active means well fitted activation curve with a large enough effect in the signal ratio in the repeat runs, not every such curve was filed as active; the % refers to the signal ratio); details: HEK293H PPARg-UAS-bla, beta-lactamase FRET ratio, 17 h
# How it was run: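 Agonist activity was taken from a beta-lactamase reporter (FRET substrate, 1 h at room temperature) in HEK293H cells carrying a PPARg UAS-bla construct. Compounds in DMSO were incubated 17 h at 37C after a 5 h cell pre-incubation.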
# [8] = qHTS assay to identify small molecule antagonists of the peroxisome proliferator-activated receptor gamma (PPARg) signaling pathway - cell viability counter screen (AID 743194); details: PPARg-bla HEK293H viability, CellTiter-Glo luminescence, 17 h, co-treated with 50 nM rosiglitazone; further: nearly all actives have a fitted effect of over 55% in size
# How it was run: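 Cytotoxicity counter screen in PPARg-bla HEK293H cells, same wells as reporter assay. Compounds plus 50 nM rosiglitazone (final) for 17 h at 37 C, then viability read by CellTiter-Glo luminescence.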
# [9] = target: Peroxisome proliferator-activated receptor gamma (Homo sapiens) (UniProt P37231); assay: qHTS assay to identify small molecule antagonists of the peroxisome proliferator-activated receptor gamma (PPARg) signaling pathway (AID 743191; calls by dose curve; further: nearly all actives have a fitted effect of over 30% in size)
# How it was run: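 GeneBLAzer PPARg UAS-bla HEK293H cells, 5 h post-plating, exposed to compounds 17 h at 37C. LiveBLAzer B/G FRET substrate added for 1 h at room temperature; beta-lactamase reporter read by fluorescence intensity.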
# On the % scale 0 is the no-effect control and ±100 the full control effect.
Structure (SMILES),Potency [1],"activity change, negative = inhibition ([2]; at 95 µM (top of the series))",Potency [3],"activity, negative = inhibition (Aromatase (Homo sapiens); at 95 µM (top of the series))","activity change, negative = cytotoxicity ([4]; at 95 µM (top of the series))",Potency [5],Potency [6],activation ([7]; at 78.9 µM (top of the series)),"activity change, negative = cytotoxicity ([8]; at 81.1 µM (top of the series))","activity change, negative = inhibition ([2]; at 70.3 µM (top of the series))","activity, negative = inhibition (Aromatase (Homo sapiens); at 70.3 µM (top of the series))","activity change, negative = cytotoxicity ([4]; at 70.3 µM (top of the series))",activation ([7]; at 57 µM (top of the series)),"activity change, negative = cytotoxicity ([8]; at 62.6 µM (top of the series))",Potency [9]
N=C(N)N[N+](=O)[O-],inactive,inactive: -17.6%,inactive,inactive: 3.4%,inactive: -10.9%,inactive,inactive,inactive: 4.52%,inactive: 2.84%,,,,,,
CC(C)N(CCO)C(C)C,,,inactive,,,inactive,inactive,,,inactive: -0.504%,inactive: 2.4%,inactive: 11.9%,inactive: 3.93%,inactive: 3.35%,
CC(C)OP(=O)(F)OC(C)C,inactive,,inactive,,,inactive,inactive,,,inactive: 2.92%,inactive: 2.56%,inactive: 5.84%,inactive: 2.89%,,
Cc1ccc([N+](=O)[O-])cc1[N+](=O)[O-],inactive,,inactive,,,inactive,inactive,,,inactive: 3.01% and inactive: 9.44%,inactive: 1.49% and inactive: 10.8%,inactive: -2.88% and inactive: 22.9%,inactive: 0.493% and inactive: -0.0352%,inactive: 31.3% and inactive: 4.93%,
CP(=O)(O)OCCC[Si](O)(O)O,inactive,,inactive,,,,inactive,,,inactive: 1.95%,inactive: 14.1%,inactive: 1.25%,inactive: 0.0167%,inactive: 1.09%,
O=[N+]([O-])[O-].[NH4+],,,inactive,,,inactive,inactive,,,inactive: -2.92% and inactive: -1.09% and inactive: 0.517%,,,inactive: 0.177% and inactive: 0.0469% and inactive: 2.34%,inactive: 21.5% and inactive: -13.3%,
COP(C)(=O)OC,inactive,inactive: -4.97%,inactive,inactive: -0.0809%,inactive: 4.59%,inactive,inactive,inactive: 1.63%,inactive: 1.67%,inactive: 18.5%,inactive: 17.8%,inactive: 23.2%,inactive: -1.07%,inactive: 12.8%,inactive
O=[N+]([O-])c1cccc([N+](=O)[O-])c1,inactive,,inactive,inactive: 26.6%,,,inactive,inactive: -9.15%,,,inactive: 9.37%,inactive: 12.4%,inactive: 4.05%,,
Nc1cc([N+](=O)[O-])cc([N+](=O)[O-])c1O,inactive,inactive: -9.12%,active: 17.6 µM,inactive: -13.6%,,inactive,active: 24.9 µM,inactive: -6.02%,inactive: 13.9%,,,,,,
Cc1c([N+](=O)[O-])cccc1[N+](=O)[O-],,,inactive,,,inactive,inactive,,,inactive: -1.13% and inactive: 1.8%,inactive: 2.02% and inactive: -5.63%,inactive: -0.135% and inactive: -5.67%,inactive: -0.574% and inactive: -2.56%,inactive: 21% and inactive: 14.3%,
CN(C)CCS,,,inactive,,,inactive,inactive,,,inactive: 1.11%,inactive: 15.9%,inactive: 10.1%,inactive: 0.769%,,
